Usually IC50 stands for the concentration that inhibits the measured activity by half.

Amino acid sequences for entries named in this document (tags omitted).
UniProt O70342, whole entry: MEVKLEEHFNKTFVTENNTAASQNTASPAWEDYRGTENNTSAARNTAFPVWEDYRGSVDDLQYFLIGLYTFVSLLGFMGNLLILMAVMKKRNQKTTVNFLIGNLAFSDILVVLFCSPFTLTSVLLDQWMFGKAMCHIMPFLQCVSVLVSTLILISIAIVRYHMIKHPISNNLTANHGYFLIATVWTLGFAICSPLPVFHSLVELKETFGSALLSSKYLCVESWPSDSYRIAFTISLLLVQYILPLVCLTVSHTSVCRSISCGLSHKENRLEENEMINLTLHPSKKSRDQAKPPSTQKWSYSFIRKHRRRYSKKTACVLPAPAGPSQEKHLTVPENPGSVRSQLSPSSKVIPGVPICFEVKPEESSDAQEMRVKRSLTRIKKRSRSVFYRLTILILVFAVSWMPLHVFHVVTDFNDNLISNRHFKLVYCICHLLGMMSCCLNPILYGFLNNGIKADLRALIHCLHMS

The test concerns the target mouse NPY Y5 receptor (Mus musculus (Mouse), UniProt O70342). Kind of test: Affinity for NPY Y5 receptor (Test Example 1-1), 125I peptide YY binding. To be noted: read-out: Binding IC50; inhibition of 125I peptide YY binding to membranes of CHO cells expressing mouse NPY Y5 receptor. The source says:
cDNA sequence encoding mouse NPY Y5 receptor (Biochem. Biophys. Acta 1328: 83-89, 1997) was cloned in the expression vector (pME18S, Takebe et al. Mol. Cell. Biol. 8, 466-472). The obtained expression vector was transfected into CHO cells as a host according to the instruction manual using Lipofectamine reagent (Trademark, Gibco BRL Co., Ltd.). The cells that stably express NPY Y5 receptor were obtained.
The membrane samples prepared from the CHO cells expressing NPY Y5 receptor, the compound of the invention and 30,000 cpm ^125I peptide YY (60 pM of final concentration: Amersham) were incubated in the assay buffer (20 mM HEPES-Hanks buffer containing 0.1% bovine serum albumin, pH 7.4) at 25° C. for 2 hours. The membrane samples were then filtered from the mixture through a glassfilter (GF/C) presoaked with 1% polyethyleneimine. After washing with 50 mM Tris-HCl buffer (pH 7.4), radioactivity retained on the filters was determined using gamma counter. Non-specific binding was determined in the presence of 200 nM of peptide YY and the 50% inhibitory concentration (IC50 value) of the test compound for specific peptide YY binding was calculated (Inui, A. et al. Endocrinology 131, 2090-2096 (1992)).

SMILES strings stand for the structures.

As for `FC(F)(F)c1ccc(N[C@H]2CC[C@H](Cn3nncc3-c3ccccc3)CC2)nc1`, the IC50 was 3.8 nM.
